Experimental findings from patent publication US6403602B1 (priority 1997, dated 2002) are described below.

Sequences of proteins named here, by UniProt entry; tags and fusion partners are left off. A change or cut given only in a name is not applied to a line headed by its entry.
UniProt P41144: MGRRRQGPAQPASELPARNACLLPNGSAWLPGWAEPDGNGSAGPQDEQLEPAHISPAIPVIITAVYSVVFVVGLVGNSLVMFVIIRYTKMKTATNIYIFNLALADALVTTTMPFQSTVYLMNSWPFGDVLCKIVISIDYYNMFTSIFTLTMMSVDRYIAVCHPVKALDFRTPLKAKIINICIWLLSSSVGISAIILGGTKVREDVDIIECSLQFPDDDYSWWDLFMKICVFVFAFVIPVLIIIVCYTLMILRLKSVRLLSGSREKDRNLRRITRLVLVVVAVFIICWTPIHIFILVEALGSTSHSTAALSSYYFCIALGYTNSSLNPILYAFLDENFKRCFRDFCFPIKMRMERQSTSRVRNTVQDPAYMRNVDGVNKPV

pKi: −log10 of the molar value. Structures can show the parent of a compound that is named as a salt.

In experiment [1] the target is T1, kappa1 sites (Cavia porcellus, UniProt P41144).
T1 construct: The brains were then homogenized in 50 mM Tris HCl, buffer pH 7.7, using a Polytron; from tissue; host or cells: guinea pig brain homogenate (membrane pellet)
Format: binding, guinea pig. To be noted: read-out: Ki κ1 [^3H]U69,593.

In experiment [2] the target is kappa receptors (Cavia porcellus, UniProt P41144).

For `COC(=O)/C=C/C(=O)N[C@@H]1CC[C@@]2(O)[C@H]3Cc4ccc(O)c5c4[C@@]2(CCN3CC2CC2)[C@H]1O5` [β-FNA-HCl], the negative logarithm of the Ki (pKi) in experiment [1] was 9.05.
As for `CCC12CCN(CC3(O)CC3)C(Cc3ccc(O)cc31)C2(C)C` (single isomer, unassigned; (-)) [(−)Bremazocine], in experiment [2], the “DR with Nor-BNI” value stood at 226.3, the “Ke of Nor-BNI” value is listed as 0.09 and the “Ratio (after Ke of Nor-BNI)” value was 0.445. Besides, the pKi in experiment [1] is 10.00.
For `CCC12CCN(CC3(O)CC3)C(Cc3ccc(O)cc31)C2(C)C` (single isomer, unassigned; (+)) [(+)Bremazocine], the negative-log Ki (pKi) in experiment [1] is 10.00.
